# Source: PubChem BioAssay
# Lamin A splicing: modulators of lamin A splicing; Potency, µM (titrated, usually from 46.1 µM), most hits filed as inhibitors; HeLa LMNA splicing GFP/RFP minigene ratio, 48 h; 200,000 compounds, 0.01% hits; AID 1487; active = well fitted inhibition curve with a large enough effect in the signal ratio, with a control signal flat, not every such curve was filed as active; inconclusive = small, poorly fitted or top-dose-only effect, or effect the other way, or a change in a side signal; the % refers to the signal ratio
#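 S3 HeLa cells stably expressing lamin A-EGFP splicing minigene plus DsRed2, 600 cells/well, 48 h compound exposure at 37C. Laser-scanning cytometry; analysed as GFP (500-530 nm)/RFP (575-640 nm) total intensity ratio; 0.5% DMSO vehicle.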
# Sfp PPTase inh: Sfp phosphopantetheinyl transferase inhibition; Biochemical Sfp PPTase activity, qHTS; Potency, µM, most hits filed as inhibitors; 310,000 compounds, 3.5% hits; AID 1490;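 note: the enzyme is Sfp with the accession as filed and its product quenches rhodamine fluorescence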
#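 Fluorescence-quenching assay with 15 nM Sfp, 5 uM rhodamine-CoA and 12.5 uM BHQ-2-labelled ybbR peptide in pH 7.6 Hepes/MgCl2 buffer. Enzyme was pre-incubated with compound for 15 min at room temperature. Rate was taken from the 30-min fluorescence change (525/598 nm).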
# KDM4E inh: inhibitors of human JMJD2E histone demethylase | B2RXH2 | JMJD2E catalytic domain, FDH-coupled NADH fluorescence (FDH is formaldehyde dehydrogenase) | Potency, µM (doses to about 57.1 µM), hits mostly inhibitors | 230,000 compounds, 1.6% hits | AID 2147; active = well fitted inhibition curve with a large enough effect, not every such curve was filed as active; inconclusive = small, poorly fitted or top-dose-only effect, or another doubt; inactive = no such curve, though single readings can be large or run the other way; note: nearly all actives have a fitted effect of over 50% in size
# miR-21 FLuc: raises the signal of a miR-21 reporter | HeLa miR-21 FLuc reporter, luciferase, 48 h | Potency, µM (doses to about 38.3 µM) | 340,000 tested, under 10 active | AID 2288; active = well fitted rising curve with a large enough effect; inconclusive = small, poorly fitted or top-dose-only effect; inactive = no such curve, though single readings can be large or run the other way;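 note: miR-21 action dims this reporter so a rising signal means less miR-21 action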
#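 Luminescence from a firefly luciferase reporter carrying a miR-21 binding site downstream, stably expressed under a CMV promoter in HeLa cells that make miR-21 endogenously, reports miRNA modulation after 48 h compound exposure up to approximately 40uM final.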
# G9a block: G9a (human) methyltransferase inhibition; AID 504332; Potency, µM (doses to about 102 µM), usual class: inhibitors; 350,000 compounds, 8.8% hits; G9a H3K9 monomethylation, AlphaScreen, 2 h; note: nearly all actives have a fitted effect of over 75% in size
#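 G9a (20 nM) was preincubated 15 min with compound, then reacted 2 h at room temperature with 500 nM biotin-H3K9 peptide and 20 µM SAM. Monomethyl-H3K9 detected by AlphaScreen using anti-H3K9me1 antibody.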
# ALDH1A1 block: ALDH1A1 (human) enzyme inhibition | Potency, µM (doses to about 75.3 µM), actives largely listed as inhibitors | 220,000 compounds, 7.3% hits | P00352 | Purified ALDH1A1, NADH fluorescence, propionaldehyde substrate; active = well fitted inhibition curve with a large enough effect, not every such curve was filed as active; inconclusive = small, poorly fitted or top-dose-only effect, or another doubt; inactive = no such curve, though single readings can be large or run the other way
# Numbers stand for hits; i = inactive; ? = inconclusive; nt = no result; [ ] = remark or other dose. This is a sample that favours compounds with a hit; in the whole collection about 13% have one here. Unless noted, calls come from the whole dose curve; as a rule, active = well fitted curve in the direction sought with a large enough effect; inconclusive = small, poorly fitted or top-dose-only effect, or another doubt; inactive = no such curve, though single readings can be large; an effect the other way counts as inactive or inconclusive.
SMILES,Lamin A splicing,Sfp PPTase inh,KDM4E inh,miR-21 FLuc,G9a block,ALDH1A1 block
C=CCCCCCCCCCCCC(O)CC(O)COC(C)=O (stereo unspecified) (tested in a mixture with another compound),nt,i,i,nt,i[2.33 µM],i
CC1CC(C)CN(CC(=O)N2CCOCC2)C1 (stereo unspecified),?,i,?,i,8.9µM,i
CCN(CC)c1cc2c(cc1F)c(=O)c(S(=O)(=O)c1cccc(C)c1)cn2C,?,nt,nt,i,i,nt
O=C(CSc1nnnn1-c1ccccc1)N1CCc2ccccc21,i,i,i,i,13µM,i
O=C(Cn1cnc2c(nnn2-c2ccc(F)cc2)c1=O)N1CCCc2ccccc21,?,i,i,i,i,28µM
Nc1nc2nc(SCC(=O)N3CCCc4ccccc43)[nH]c2c(=O)[nH]1,i,i,i,i,79µM,i
CCc1nnc(NC(=O)c2c(O)c3cccc4c3n(c2=O)CC4)s1,i,i,i,i,i[12.7 µM],i
CCc1nnc(NCC(=O)N2CCc3ccccc32)s1,i,i,i,i,14µM,25µM
COc1ccc(-n2nnc3c(=O)n(CC(=O)N4CCCc5ccccc54)cnc32)cc1,i,i,i,i,i,?
CCOC(=O)CSc1nc2c(sc3cccc(F)c32)c(=O)n1Cc1ccc(OC)cc1,i,nt,nt,i,i,nt
CC(=O)c1ccc(OCCCC(=O)NCCc2ccc(C(F)(F)F)cc2)cc1,nt,i,nt,i,i,nt
CCC1=C2CC[C@H]3C(=O)N(CC)C(=O)[C@H]3[C@H]2[C@@]2(Cc3ccccc3)C(=O)N(CCOC)C(=O)N2C1=O,nt,i,i,nt,nt,i
O=C(CSc1nnnn1-c1ccccc1)N1CCCc2ccccc21,i,i,i,i,i,7.9µM
Nc1nc(SCC(=O)N2CCCc3ccccc32)n(-c2ccccc2)n1,i,i,i,i,i,?
CN1C(=S)SC(C)(C)C1N(O)C(=O)Nc1ccc(Cl)cc1 (stereo unspecified),nt,i,i,i,i,i
CC1(C)C(N(O)C(=O)Nc2ccc(Cl)cc2)N(c2ccc(Cl)cc2)C(=O)N1CC(=O)NN (stereo unspecified),i,100µM,i,i,i[12.7 µM],i
O=C(Sc1nnc(-c2ccccc2)o1)N1c2ccccc2Sc2ccccc21,i,i,?,i,8.9µM,22µM
Cc1ccc(C)n1-c1nnc(N2CCCC(C(=O)NCc3ccc(F)cc3)C2)s1 (stereo unspecified),nt,nt,nt,i,i,nt
CCOC(=O)c1c(S(=O)(=O)NCC(=O)Nc2cccc(SC)c2)c(C)n(C)c1C,i,nt,nt,?,i,nt
C(=N\Nc1nc2ccccc2[nH]1)/c1ccncc1,i[9.22 µM],i,i,i,i,i
C(=N\NC1=NCCN1)/c1ccncc1,nt,i,nt,i,40µM,nt
O=C(C1CC1)N1CCc2cc(Br)cc(S(=O)(=O)NCCN3CCOCC3)c21,i,i,i,i,i[12.7 µM],i
CCOCCCNS(=O)(=O)c1cc(Br)cc2c1N(C(=O)C1CC1)CC2,i,i,i,i,i[12.7 µM],10µM
O=C(C1CC1)N1CCc2cc(Br)cc(S(=O)(=O)NCc3ccc4c(c3)OCO4)c21,?,i,i,i,i[12.7 µM],10µM
O=C(C1CC1)N1CCc2cc(Br)cc(S(=O)(=O)NCc3ccco3)c21,i,i,i,i,i,2µM
SMILES,Lamin A splicing,Sfp PPTase inh,KDM4E inh,miR-21 FLuc,G9a block,ALDH1A1 block
Cc1ccc(CNS(=O)(=O)c2cc(Br)cc3c2N(C(=O)C2CC2)CC3)cc1,nt,nt,nt,i,i,nt
Cc1ccc(S(=O)(=O)N2CCOC23CCN(C(=O)C(=O)NCc2ccccc2)CC3)cc1,nt,nt,nt,nt,i,nt
CCCN1Cc2cccc(C(=O)Nc3ccc(C(C)=O)cc3)c2C1=O,nt,nt,nt,i,i,nt
COc1ccccc1C1CCN(c2ccc(CO)cc2[N+](=O)[O-])CC1,nt,i,i,i,35µM,?
Cc1cc(-c2ccccc2)nc2oc(C(=O)NN)c(N)c12,nt,i,?,i,i,nt
O=C(N/N=C/c1ccc(F)cc1)c1cc(-c2ccco2)nc2ccccc12,i,?,?,i,?,?
Nc1c(C(=O)N/N=C/c2ccc(F)cc2)oc2nc(-c3ccccc3)cc(-c3ccco3)c12,nt,i,?,i,28µM,nt
Nc1c(C(=O)N/N=C/c2ccccc2Cl)oc2nc(-c3ccccc3)cc(-c3ccco3)c12,nt,i,?,i,20µM,nt
COc1ccc(CNC(=O)c2ccc(-c3nc(CSc4ccccc4)c(C)o3)cc2)c(OC)c1,nt,nt,nt,i,?,nt
CCOC(=O)c1c(C)c(C(=O)N2CCN(C(=O)c3ccco3)CC2)c(C)n1C,i,i,i,i,i,13µM
CCOC(=O)c1c(C)c(C(=O)NCc2ccco2)c(C)n1C,nt,i,i,i,?,i
CCOC(=O)c1c(C)n(C(=O)c2ccco2)c(=O)n1C(=O)c1ccco1,i,i,i,i,56µM,i
CCCCCc1nnc(NC(=O)C2CCCO2)s1 (stereo unspecified),i,i,i,i,?,?
NC(=O)c1ccccc1NC(=O)C1CCCO1 (stereo unspecified),nt,i,nt,i,i,nt
Cc1nnc(NC(=O)CCSCCC(=O)Nc2nnc(C)s2)s1,nt,i,i,i,50µM,?
Cc1nnc(NC(=O)C2CCCO2)s1 (stereo unspecified),i,i,i,i,8.9µM,8.9µM
